One assay has as its system DU145 cells. Kind of assay: specific binding of LH to prostate cancer cells. Further details: species or system human.
A further assay concerns LNCaP cells. As to the kind of experiment: specific binding of LH to prostate cancer cells. Further details: species or system human.

On to LH: luteinizing hormone, for which the specific binding result in the assay on DU145 cells is listed as “specifically binds DU145 cells”; in the assay on LNCaP cells it was “have not been able to consistently measure specific binding”.
